# Measured values: PubChem BioAssay AID602162 (NMMLSC, 2011)
# Protein sequences, listed by entry. Tags and fused reporters are not part of them.
# UniProt Q9NP58, whole entry: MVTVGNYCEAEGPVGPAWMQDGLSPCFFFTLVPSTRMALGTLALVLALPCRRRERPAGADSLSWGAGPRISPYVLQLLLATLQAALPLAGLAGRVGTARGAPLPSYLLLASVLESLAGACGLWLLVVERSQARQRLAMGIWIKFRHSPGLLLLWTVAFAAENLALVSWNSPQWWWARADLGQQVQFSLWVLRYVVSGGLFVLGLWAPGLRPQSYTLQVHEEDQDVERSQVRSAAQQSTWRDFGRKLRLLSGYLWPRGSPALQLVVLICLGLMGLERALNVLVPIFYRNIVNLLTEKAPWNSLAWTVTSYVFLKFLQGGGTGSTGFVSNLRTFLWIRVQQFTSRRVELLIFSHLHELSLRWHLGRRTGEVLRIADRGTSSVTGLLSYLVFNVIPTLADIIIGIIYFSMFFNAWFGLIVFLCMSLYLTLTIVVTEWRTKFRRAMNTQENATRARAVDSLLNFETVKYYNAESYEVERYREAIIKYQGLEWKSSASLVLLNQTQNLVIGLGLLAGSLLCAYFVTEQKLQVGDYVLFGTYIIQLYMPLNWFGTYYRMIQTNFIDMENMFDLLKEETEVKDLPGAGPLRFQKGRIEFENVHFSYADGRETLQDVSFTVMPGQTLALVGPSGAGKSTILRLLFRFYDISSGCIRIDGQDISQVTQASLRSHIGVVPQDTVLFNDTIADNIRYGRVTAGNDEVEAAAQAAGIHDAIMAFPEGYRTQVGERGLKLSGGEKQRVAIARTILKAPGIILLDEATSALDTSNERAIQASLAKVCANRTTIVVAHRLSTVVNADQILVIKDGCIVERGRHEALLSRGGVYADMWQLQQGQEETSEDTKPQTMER
# Only a part is listed here, and it is no random draw. Activity calls are given as the source filed them.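 Rule for the calls: active = fluorescence ratio to DMSO below 75%, the collection mean minus 3 SD; inconclusive = too few cells collected in the well; inactive = the rest.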
# Biological target: ATP-binding cassette sub-family B member 6 (Homo sapiens) (UniProt Q9NP58)
# Experiment: blockers of ABCB6-driven porphyrin uptake – K562-ABCB6 cells, flow cytometry, MLPCN library, primary screen (AID 602162);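 note: signal is porphyrin accumulated inside mitochondria; 100% equals median channel fluorescence of DMSO control wells; lower ratio means ABCB6 inhibition with less porphyrin fluorescence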
# Settings: K562-ABCB6 porphyrin accumulation, 1 h, at 10 µM, stronger effect = lower value
row,Compound,fluorescence ratio to DMSO
1,CCC(=O)N(c1ccccc1)C1(COC)CCN(CCn2nnn(CC)c2=O)CC1,inactive: 99%
2,CCC(=O)N(c1ccccc1)C1(COC)CCN(CCc2cccs2)CC1,inactive: 90%
